# Apparent affinities of Ab-14 variants for a coronavirus HR2 peptide

The target is the same throughout: PDVDLGDISGINAS, from the HR2 region of SARS-CoV-2 spike.

Parent: Ab-14, a human scFv built as VH, a 15-residue (Gly4Ser)3 linker, VL. Only the CDRs of the light chain vary.
VH: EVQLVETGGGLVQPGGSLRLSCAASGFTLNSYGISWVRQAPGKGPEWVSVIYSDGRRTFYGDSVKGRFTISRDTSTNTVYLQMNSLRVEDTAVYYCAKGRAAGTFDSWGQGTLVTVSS
VL: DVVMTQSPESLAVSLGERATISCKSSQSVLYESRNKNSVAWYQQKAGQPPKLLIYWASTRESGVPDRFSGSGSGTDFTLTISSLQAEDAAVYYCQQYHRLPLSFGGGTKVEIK

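This is the validation round: designs drawn from the data on random variants, tested in the same kind of assay. Several design methods are mixed in this list. The assay is AlphaSeq: two haploid yeast populations carry antibody and antigen on their surface. The frequency of each diploid, read from paired DNA barcodes, reflects how well the two displayed proteins bind. Each replicate has its own calibration line, from reference interactions of the BCL2 family. Mating was done six times.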

Variants are written as CDR1, CDR2 and CDR3 of the light chain (limits as in the source). Parent: KSSQSVLYESRNKNSVA, WASTRES, QQYHRLPLS.
Affinities are written as log10 Kd with Kd in nM; a lower number is a better binder.
Averages over replicates are reported, and they cover detected replicates only.
"nd" means that the variant was in the library but no mating with the target was seen in any replicate; the authors take this as a sign of poor binding, and no number exists.

CDR-L1 | CDR-L2 | CDR-L3 | log10 Kd (nM), mean | replicates with signal
KVSQSVLYESRNKNSVA | QASTRES | QQYHRLPLS | -0.35 | 12/12
TISQMTSLFQQSINNVA | EVTTREP | QQYDRLPLA | nd | 0/6
KLSQSVLYEQRQKNSVA | NASTRES | QQYHRLPLS | 0.15 | 6/6
KFSQSFLYESRNKNSVA | DANTRES | QQYHRLPLS | -0.41 | 6/6
LSSISYLYESENKNSVA | EASTRES | QQYHRLPLS | 0.91 | 6/6
HLSQSVLYESRNKNSVA | NASTRED | QQYHRLPLS | 0.17 | 6/6
KVSQSVMMLSRNKNSVA | DNSTSGS | QQYHRLPLS | 0.99 | 6/6
KYDFSVLELSRNSNSVA | NASTREE | QDYHRLPLS | 0.48 | 6/6
KLSQSVLYCSRNKNSVA | WASTRES | QQYHILPLS | nd | 0/6
KHSDSVPNESRNKNSVA | WASTRES | QQYHRLPLS | 1.99 | 5/6
NLMSHQGEYDVWKYSIA | EASIRLS | QQYFRLPLA | nd | 0/6
KSHQSVYYESRNKNSVA | WASTRES | QQYHRLPLS | 2.57 | 3/6
RVSVFMLTDENVWYSIA | NSAATRT | QQYQRLPLS | nd | 0/6
QSSGSVLYESRNKNSVA | DASTRES | QQYHRLPLS | -0.21 | 6/6
KLPQSWLYESRMKNSVA | NASQRES | QQYHRLPLS | -0.27 | 6/6
KSSGSYLYESRNKNSVA | EASTREQ | QQYHRLPLS | -0.12 | 6/6
KSSQDVLYESMNPNSVA | GASTRES | QQYHRLPLS | 0.10 | 6/6
TISMHTSLFSQTINNVA | EVSTREQ | QQYDRLPLV | 0.73 | 6/6
QVTNISDPYGRNRNNIA | QTSERAH | QQYQMLPLA | -0.49 | 6/6
HIELGTWGVGKFDSSVA | HASQRQE | QQYDQLPLT | 0.75 | 6/6
KSLQSVLYESRNKNSVA | HASTRED | QSYHRLPLS | 0.56 | 6/6
KLSQSVLYESRNKNNVA | QASTRES | QQYHRLPLS | -0.52 | 6/6
IISQSVLGEYHNKNNVA | QTSERGS | QQYDRLPLS | 0.06 | 6/6
KSGQSVLYESRNKNSVA | GASQRWS | QQYHRLPLS | 0.43 | 6/6
KLSGSWLYESRNKNSVA | GASTRES | QQYHRLPLS | -0.58 | 6/6
KVSQSQLYESRNKNNVA | DASTRES | QQYHRLPLS | -0.49 | 6/6
KLMYSVPYESRNKNSVA | DASTRSS | QQYHRLPLS | 0.22 | 6/6
KLQWYNTEASMSARNIA | DGAQRLN | QQYMRLPLM | -0.24 | 6/6
KFSQSGLYESRTSNRVA | NASTRES | QQYHRLPLS | 0.62 | 6/6
KSSQSNLMESRNKNSVA | WASTRES | QQYHRLPLS | 2.30 | 6/6
KLQQSVLYSSRNKNSVA | NASTRES | QQYHRLPLS | -0.18 | 6/6
KVSMSWLMESRNWNSVA | NASLRES | QDYHRLPLS | 0.05 | 6/6
TIGQSVHETSRIKNSVA | HATTRED | QQYDRLPLS | -0.13 | 6/6
KSSQSQLYESRNFNSVA | HASTRED | QQYHRLPLS | 0.36 | 6/6
KLSQSVLYESRNKNNVA | DASTRED | QQYHRLPLS | -0.51 | 6/6
KVSDMMGFLSRNRNSVA | DNSTRGS | QQYHRLPLS | 0.70 | 6/6
QLAVERGQEYKAGAAIA | GKTEKEH | QQYAMLPLS | 1.25 | 6/6
KLSQSVEYESRNKNSVA | NASTRCS | QQYHRLPLS | -0.05 | 6/6
KSSQSVLYEGADLNSVA | WASQRES | QQYHRLPLS | 2.34 | 3/6
KSMQSELDENRNDNSVA | SASTRLE | QQYHRLPLS | 0.13 | 6/6
KISQMVRVGATHNNSIA | EEATRAK | QQYHRLPLA | 2.08 | 5/6
KVHQSWLYESRQINSVA | NASQRCD | QQYHRLPLS | 0.30 | 6/6
ILEENSDDITEQGNSIA | ETNMVYS | QQYHRLPLA | 1.76 | 6/6
KLSQSFLYESRNKNSVA | EASTREM | QQYHRLPLS | -0.28 | 6/6
KITMYELEMRFNGSAVA | AAEVRAN | QQYWRLPLE | 1.79 | 4/6
KLWMIFFEGQSELQAVA | NAGVLRQ | QQYNHLPLS | 2.30 | 1/6
KLSQSFLYESRNKNSVA | AASTRES | QQYHRLPLS | 0.00 | 6/6
KISQEDPYENRNHNSVA | HASLRES | QQYHRLPLS | 0.17 | 6/6
YLSQSVLYESRNKNSVA | GASTRES | QQYHRLPLS | -0.29 | 6/6
KVPQSVPYESRNKNSVA | NASTRES | QQYHRLPLS | -0.13 | 6/6
KSSGSYLYESGNKNSVA | EASTRES | QQYHRLPLS | 0.32 | 6/6
KLQQSHLYESRMKNSVA | NASTRMS | QQYHRLPLS | 0.25 | 6/6
KQSQEVPFESRNKNSVA | DASTRES | QQYHRLPLS | -0.20 | 6/6
KMSQSWLYESRNKNSVA | NASQRLS | QQYHRLPLS | -0.01 | 6/6
RISVFQNMSTQGNNSIA | GAEQKVH | QQYMRLPLY | 0.44 | 6/6
KISGSVMMLQRNDNSVA | DANTRES | QQYHRLPLS | -0.24 | 6/6
KSSQPVLYESKNKNSVA | WASTRES | QQYHRLPLS | 2.13 | 1/6
KNSQMVLYESRNKNSHA | WASVRNV | QQYHRLPLS | 1.71 | 3/6
KLDQSDLYESRNKNSVA | GASTRES | QQYHRLPLS | -0.26 | 6/6
NLPMKELGMSWNVNNVA | DSENRMK | QQYSRLPLM | 0.69 | 6/6
KFSQSVLYESTTDNSVA | NASTRES | QQYHRLPLS | 0.21 | 6/6
KMSQSVDYESRNMNSVA | WASTRES | QQYHRLPLS | 0.28 | 6/6
KVSISYLYESRNKNSVA | EASTRES | QQYHRLPLS | -0.05 | 6/6
KSSQSVLYESRIKNSVA | WASTRPY | QQYHYLPLS | nd | 0/6
KSSQSDLYESRNKNSVA | GASTREN | QQYHRLPLS | -0.22 | 6/6
KSSQSFLYESRWKNSVA | NASQRES | QQYHRLPLS | 0.36 | 6/6
KVSPSYLYESRNKNSVA | EASTRES | QQYHRLPLS | -0.20 | 6/6
KSSQSVTFESRNKNSVA | WASTRES | QQYHRLPLS | 1.57 | 4/6
KISQSVLTESRNKNSVA | WASTRES | QQYKRLPLS | 0.61 | 6/6
MIEIIQDGYMEMRSNVA | DTSLVRM | QQYARLPLM | 1.50 | 5/6
IISDLTMYGSRNVNSVA | DLSTRGS | QQYHRLPLS | 0.28 | 6/6
KVGQSFLQESRNKNSVA | HASLRES | QQYHRLPLS | 0.05 | 6/6
KLQQSGLYGSRNKNSVA | EASTRLV | QAYHRLPLS | 0.42 | 6/6
KSSQSVLAEDYNKNSVA | EASTRSS | QQYHRLPLS | 0.50 | 6/6
KSSQSVLYESRNKNSVA | WASVRES | QQYARLPLS | 1.41 | 6/6
KSSQSVYYESFNTNSVA | WASYRES | QRYHRDPLS | nd | 0/6

The closing 6 entries, repeated:

CDR-L1	CDR-L2	CDR-L3	log10 Kd (nM), mean	replicates with signal
IISDLTMYGSRNVNSVA	DLSTRGS	QQYHRLPLS	0.28	6/6
KVGQSFLQESRNKNSVA	HASLRES	QQYHRLPLS	0.05	6/6
KLQQSGLYGSRNKNSVA	EASTRLV	QAYHRLPLS	0.42	6/6
KSSQSVLAEDYNKNSVA	EASTRSS	QQYHRLPLS	0.50	6/6
KSSQSVLYESRNKNSVA	WASVRES	QQYARLPLS	1.41	6/6
KSSQSVYYESFNTNSVA	WASYRES	QRYHRDPLS	nd	0/6

The range of this assay differs from that of the first round, and the authors advise against merging the two.
The authors averaged sequences with at least three values out of six and counted those with two or fewer as poor binders.
Three control strains display no target. For all light chain designs, 4% of the pairings with them gave a signal, with a median of 2.64 and one signal in twenty below 1.59, so weak values seen in few replicates may be background.
Some sequences occur more than once in the pool; their replicates are pooled.

Reference: Li et al. 2023, doi:10.1038/s41467-023-39022-2. File: FLAb, binding data.